Experimental data from PMC12097015, “Development of MDM2‐Targeting PROTAC for Advancing Bone Regeneration” (Advanced Science, 2025).

Tested on: rabbit calvaria
Experiment: Rabbit calvarial vertical onlay graft model
Assay type: in vivo, New Zealand white rabbits
Conditions: eight weeks, CL144 10 μΜ or rhBMP‐2 3.85 μΜ soaked on BCP carrier
From the text: ‐Establishment of Vertical Onlay Graft Rabbit Model: The experimental protocol was approved by the Institutional Animal Care and Use Committee of Yonsei Medical Center, Seoul, Korea (IACUC Approval No. 2024–0146). Total six male, New Zealand white rabbits, weighing ≈2.8–3.2 kg were used for the rabbit calvaria onlay graft model. Rabbits were kept in separate cages under standard laboratory conditions with free access to food and water and provided standard meals according to the ARRIVE guidelines. The animals were sacrificed eight weeks postoperatively (n = 6), and each rabbit was divided into three different groups. Commercially available rhBMP‐2 were used for the positive control (Cowellmedi, Korea). CL144 and BMP‐2 solutions (200 µg) were soaked onto 0.1 g a biphasic calcium phosphate carrier (BCP; Osteon III; Genoss, Korea) for 10 min before grafting. […]
‐Radiographic analysis: A single‐blinded examiner conducted all the measurements. […] The volume of the newly formed bone within the cylinders was measured.
‐Histologic analysis: Specimens were decalcified in Calci‐Clear Rapid (National Diagnostics, 305 Patton Drive, USA) for two weeks. […] Within the cylinder, the total augmented area, area and proportion of newly formed bone, and residual graft materials were measured as previously described.^[ [34] ^]

rhBMP‐2: recombinant human bone morphogenetic protein-2, positive control
amount of new bone (histomorphometric analysis): 35.29 ± 7.67%
new bone volume (micro‐CT) (n = 6): 48.07 ± 6.66 mm^3
